Target: human recombinant A3 adenosine receptor (Homo sapiens (Human), UniProt P0DMS8)
Assay: Adenosine A3 receptor binding, displacement of [3H]NECA
Conditions: displacement of specific [3H]NECA binding, HEK cells; geometric mean
Protocol: Membranes for radioligand binding experiments were prepared from fresh or frozen cells as described in Klotz et al., Naunyn-Schmiedeberg's Arch. […] The cell suspension was then homogenized in ice-cold hypotonic buffer (5 mM Tris/HCl, 2 mM EDTA, pH 7.4) and the homogenate was spun for 10 minutes (4° C.) at 1,000 g.
Nonspecific binding was determined in the presence of 100 μM R-PIA and 1 mM theophylline, respectively. For details see Klotz et al., Naunyn-Schmiedeberg's Arch.

The chains behind the UniProt entries cited, without tags or fusion partners.
UniProt P0DMS8, whole entry: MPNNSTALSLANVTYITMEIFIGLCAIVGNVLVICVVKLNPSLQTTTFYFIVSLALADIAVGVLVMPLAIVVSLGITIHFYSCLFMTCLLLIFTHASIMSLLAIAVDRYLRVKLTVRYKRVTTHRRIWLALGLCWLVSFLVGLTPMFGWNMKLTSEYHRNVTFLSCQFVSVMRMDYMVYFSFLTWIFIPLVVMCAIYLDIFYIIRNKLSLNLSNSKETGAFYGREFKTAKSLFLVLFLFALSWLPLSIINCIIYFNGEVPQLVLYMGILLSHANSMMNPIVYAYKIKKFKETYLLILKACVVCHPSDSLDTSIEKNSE

O=[N+]([O-])OC[C@H]1O[C@@H](n2cnc3c(NC4CCCC4)nc(Cl)nc32)[C@H](O)[C@@H]1O [Compound 16]
Ki: 513 nM

From patent publication US8609833B2, “Purine derivatives as adenosine A1 receptor agonists and methods of use thereof” (Inotek Pharmaceuticals Corporation, priority 2004, dated 2013)
